Earlier results as cited in publication PMC6043395.
pKd: −log10 of the molar value.

Molecular target: VPS35 (Homo sapiens) (UniProt Q96QK1)

- pKd: 6.70
Substance: VPS29 (from UniProt Q9UBQ0)
